Data from patent publication US11203601B2, “Tricyclic compounds as glycogen synthase kinase 3 (GSK3) inhibitors and uses thereof” (The Broad Institute, Inc., priority 2017, dated 2021).

Chains of the proteins cited; added tags and fusions are not shown. Lines headed by an entry give the natural chain unless they say otherwise; changes in a name come on top.
UniProt P49840: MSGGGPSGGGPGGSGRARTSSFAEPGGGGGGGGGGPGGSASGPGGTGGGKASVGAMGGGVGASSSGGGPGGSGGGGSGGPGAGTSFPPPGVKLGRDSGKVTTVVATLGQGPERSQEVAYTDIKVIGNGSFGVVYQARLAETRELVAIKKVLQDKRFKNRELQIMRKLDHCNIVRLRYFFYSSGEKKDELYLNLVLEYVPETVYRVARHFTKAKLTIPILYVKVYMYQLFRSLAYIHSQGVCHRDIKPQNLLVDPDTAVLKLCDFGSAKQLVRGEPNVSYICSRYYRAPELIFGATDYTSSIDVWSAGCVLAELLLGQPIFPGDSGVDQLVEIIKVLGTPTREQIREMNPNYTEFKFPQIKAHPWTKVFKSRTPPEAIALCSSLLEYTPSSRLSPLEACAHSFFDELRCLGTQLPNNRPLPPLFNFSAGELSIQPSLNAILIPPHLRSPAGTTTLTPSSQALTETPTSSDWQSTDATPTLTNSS

Molecular target: GSK3α (Homo sapiens (Human), UniProt P49840)
Assay: Mobility shift microfluidics assay
Type: biochemical

For CC1(C)CC(=O)C2=C(C1)Nc1n[nH]cc1[C@]2(C)c1ccccc1 [drawing 169], the IC50 was 42 nM.
